High-throughput results: PubChem, National Center for Advancing Translational Sciences (NCATS)
An excerpt weighted towards active compounds, which were near 3.7% of everything screened.
TCR act = T cell receptor activation; primary human leukocytes, anti-CD3, IL-2 HTRF, 48 h; Potency, µM (doses to about 9.22 µM), for inactives: top-dose activation of IL-2 secretion, usual class: activators; 330,000 tested, under 10 active; also: % of control where 0% means no effect
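Readout: HTRF IL-2, Eu-cryptate/d2 antibody pair, 320nm excitation, 665nm emission. Stimulus: a-CD3 beads, no co-stimulation. Cells: primary human leukocytes. Exposure: 48 hr with compound.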
miR-21 reporter = raises the signal of a miR-21 reporter; HeLa miR-21 FLuc reporter, luciferase, 48 h; Potency, µM (highest dose often 38.3 µM), inactives show at the highest dose reporter change, positive = more light; 340,000 tested, under 10 active; active = well fitted rising curve with a large enough effect; inconclusive = small, poorly fitted or top-dose-only effect; inactive = no such curve, though single readings can be large or run the other way;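 note: % of control where 0% means no effect; miR-21 action dims this reporter so a rising signal means less miR-21 action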
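Using DMEM plus 10% FBS, HeLa miR-21-FLuc cells are incubated with test compounds (final up to about 40uM) for 48 hours; firefly luciferase signal is then imaged following reagent-mediated lysis.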
Nrf2 ARE act = Nrf2 pathway activation | AREc32 ARE-luciferase reporter (MCF7-derived line), luminescence, 24 h | Potency, µM (highest dose often 46.1 µM), without a hit: at the top dose activation, actives largely listed as activators | hit rate 0.31% among 410,000; also: potency is read from the fitted curve at half-maximal effect; % of control where 0% means no effect; nearly all actives have a fitted effect of over 65% in size
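Steps: seed AREc32_Fluc cells (1000/well, 5% FBS OPTI-MEM); incubate overnight at 37 deg C; add 23 nL compound; incubate 24 hr; add Steady-Glo; hold 30 min RT; read luminescence.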
ClpP mod = qHTS Assay for Activators of ClpP. ATP-dependent Clp protease proteolytic subunit (Bacillus subtilis (strain 168)), P80244. purified B. subtilis ClpP, FRET peptide cleavage, 20 min. Potency, µM (doses to about 57.5 µM), without a hit: top-dose activity change, negative = active. hit rate 1.9% among 340,000. AID 651965, 2013; active = well fitted falling curve with a large enough effect; inconclusive = small, poorly fitted or top-dose-only effect; inactive = no such curve, though single readings can be large or run the other way; also: potency is read from the fitted curve at half-maximal effect; the source files actives as falling curves though it sought activators and does not explain the sign; nearly all actives have a fitted effect of over 65% in size
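Buffer: 100 mM Tris/HCl pH8, 100 mM KCl, 0.05% low protease BSA, 2.5% glycerol, 0.01% Tween-20. ClpP 10 microg/mL final; 20 min RT; delta FRET normalized to ADEP and DMSO controls.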
A549 tox = A549 cytotoxicity, counter-screen for Nrf2 inhibitors; A549 ARE-Fluc cells, CellTiter-Fluor viability, 18-24 h; Potency, µM (top dose mostly 46 µM), inactives show top-dose activity change, negative = cytotoxicity, actives largely listed as inhibitors; hit rate 0.16% among 390,000; AID 504648; also: potency is read from the fitted curve at half-maximal effect; % is scaled to controls: 0 for no effect and ±100 for the full control effect
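A549 ARE_Fluc cells in 5% FBS OPTI-MEM were exposed to compounds in concentration-response for 18-24 h at 37 deg C. Viability was read by CellTiter-Fluor fluorescence (Ex 405/Em 525) after 30 min, before the luciferase read.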
Nrf2 inh = blocks Nrf2 signaling; A549 ARE-Fluc reporter, luciferase luminescence, 18-24 h; Potency, µM (highest dose often 46 µM), inactives show at the top dose activity change, negative = inhibition, usual class: inhibitors; hit rate 2.1% among 360,000; AID 504444; also: potency is read from the fitted curve at half-maximal effect; % is scaled to controls: 0 for no effect and ±100 for the full control effect; nearly all actives have a fitted effect of over 60% in size
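A549 ARE_Fluc cells, 5000/well, 5% FBS OPTI-MEM; compounds in dose-response, 18-24 h at 37 °C/5% CO2; CellTiter-Fluor viability read (Ex 405/Em 525), then BugLite luciferase luminescence = Nrf2 activity.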
* = called active by the depositor; u = inconclusive; x = no result; ! = not confirmed by another sample; [ ] = remark or other dose. Unless noted, calls follow the shape of the dose curve; as a rule, active = well fitted curve in the direction sought with a large enough effect; inconclusive = small, poorly fitted or top-dose-only effect, or another doubt; inactive = no such curve, though single readings can be large; an effect the other way counts as inactive or inconclusive.

SMILES	TCR act	miR-21 reporter	Nrf2 ARE act	ClpP mod	A549 tox	Nrf2 inh
CCC(C)Sc1cccc(-c2nc3ccc(Cl)cn3c2NCc2ccccc2)c1 (stereo unspecified)	-1%	x	3%	25µM*	u	u
CCC(C)Sc1cccc(-c2nc3ccc(C)cn3c2NCc2ccccc2)c1 (stereo unspecified)	-2%	x	-2%	4%	u	u
CCC(C)Sc1cccc(-c2nc3cc(C)ccn3c2NC2CCCCC2)c1 (stereo unspecified)	2%	x	0%	14µM*!	u	u
CCN(Cc1ccccc1)C(=O)COC(=O)c1c(C)nsc1NC	1%	x	-1%	-1%	0%	u
Cc1ccccc1CC1(CO)CCCN(C(=O)c2cc(Cl)ccc2F)C1 (stereo unspecified)	-2%	-3%	0%	x	-9%	12µM*
COc1ccc(-c2ncccc2O)cc1	3%	-22%	0%	25µM*	-5%	u
CCOc1c(C)cc(-c2ncccc2O)cc1C	3%	-26%	0%	28µM*	u	4%
COc1ccc(-c2ncccc2OC(=O)C23CC4CC(CC(C4)C2)C3)cc1	2%[46.1 µM]	-26%	0%	25µM*	-4%	-7%
O=C(O)c1ccccc1OC(=O)C12CC3CC(CC(C3)C1)C2	-2%	-2%	0%	x	0%	u
Cc1cc(Br)c2c(c1)/C(=C/C(=O)c1cccs1)C(=O)N2	-23%	4%	23%	x	1%	-7%
Cc1cc(C)c2c(c1)/C(=C/C(=O)c1ccc(Br)s1)C(=O)N2	-4%	3%	0%	-2%	u	9.2µM*
CCc1ccc(-c2cc3c(N4CCN(c5ccccc5)CC4)nccn3n2)cc1	x	-42%	2%	-4%	0%	u
COc1ccc(-n2ncc3c(NCC(C)C)ncnc32)cc1	-5%[46.1 µM]	-16%	0%	32µM*	9%	x
COCC(C)Nc1ncnc2c1cnn2-c1ccc(Cl)cc1 (stereo unspecified)	1%	-28%	0%	28µM*	6%	x
Cc1ccc(NC(=O)CCNS(=O)(=O)c2ccc3c(c2)CCC(=O)N3)c(Br)c1	-26%	-4%	3%	1%	0%	20%
O=C(Cc1ccccc1)N[C@@H]1c2ccccc2CC[C@@H]1OCc1ccccc1	-3%[46.1 µM]	x	0%	1%	17%	-2%
COCCN1C(=O)CN(S(C)(=O)=O)CC1(C)C(=O)NC(C)C (stereo unspecified)	x	x	x	1%	x	x
Cn1c(=O)c2c(ncn2CC(=O)N2CCOCC2)n(C)c1=O	2%	0%	0%	32µM*	-3%	u
Cc1cccc(COC[C@H](CC(C)C)N2CCN(C(=O)c3ccc(C(C)(C)C)cc3)CCC2=O)c1	x	x	-3%	4%	x	x
Cc1cccc(COCC(CC(C)C)N2CCN(C(=O)c3ccc(C(C)(C)C)cc3)CCC2=O)c1 (stereo unspecified)	-6%	1%	-6%	0%	u	23µM*

In a second layout: 3 of the compounds above
CCc1ccc(-c2cc3c(N4CCN(c5ccccc5)CC4)nccn3n2)cc1
  TCR act: x
  miR-21 reporter: -42%
  Nrf2 ARE act: 2%
  ClpP mod: -4%
  A549 tox: 0%
  Nrf2 inh: u

COc1ccc(-n2ncc3c(NCC(C)C)ncnc32)cc1
  TCR act: -5%[46.1 µM]
  miR-21 reporter: -16%
  Nrf2 ARE act: 0%
  ClpP mod: 32µM*
  A549 tox: 9%
  Nrf2 inh: x

COCC(C)Nc1ncnc2c1cnn2-c1ccc(Cl)cc1 (stereo unspecified)
  TCR act: 1%
  miR-21 reporter: -28%
  Nrf2 ARE act: 0%
  ClpP mod: 28µM*
  A549 tox: 6%
  Nrf2 inh: x

Remaining list, next part
SMILES	TCR act	miR-21 reporter	Nrf2 ARE act	ClpP mod	A549 tox	Nrf2 inh
CCOC(=O)c1ccccc1NC(=O)Cn1nnc2sc3c(c2c1=O)CCCC3	x	3%	1%	-1%	14%	12%
Cc1ccc(CNC(=O)CCCN2C(=O)COc3ccc(C)cc32)cc1	x	-1%	-1%	1%	-1%	x
CC(=O)c1sc(NC(=O)c2cc(-c3ccccc3)nn2-c2ccccc2)nc1C	0%[46.1 µM]	-8%	0%	x	-8%	u
O=C(Nc1nc2ccccc2s1)c1cc(-c2ccccc2)nn1-c1ccccc1	-5%[46.1 µM]	-36%	2%	28µM*	-11%	3%
COc1ccc(C(=O)N2CCCC(c3nc(-c4ccc(OC)c(OC)c4)no3)C2)c(OC)c1 (stereo unspecified)	4%	-6%	5%	28µM*	-3%	-7%
CCOC(=O)/C=C(\C)N1N=C(c2ccccc2)CC1c1ccccc1 (stereo unspecified)	-5%	-63%	13µM*	-1%	-5%	u
CCOC(=O)c1nnn(CC(=O)N2N=C(c3ccccc3)CC2c2ccccc2)c1C(=O)OCC (stereo unspecified)	-5%[46.1 µM]	-4%	1%	-11%	6%	15%
O=C(Nc1cccc(-c2nc3ccccc3o2)c1)c1ccc(N2C(=O)C3C4C=CC(C4)C3C2=O)cc1 (stereo unspecified)	-2%	8%	-1%	u	u	9.2µM*
O=C1C2C3C=CC(C3)C2C(=O)N1c1cccc(-c2nc3ccccc3o2)c1 (stereo unspecified)	1%	-4%	0%	u	-3%	16%
CCOc1ccccc1CNC(=O)c1ccc(N2Cc3ccccc3Oc3ncccc32)s1	x	-5%	0%	u	-3%	-4%
COc1cccc2c1Oc1ncccc1N(c1ccc(C(=O)NCc3cccc(C)c3)s1)C2	x	10%	1%	32µM*	-3%	u
COc1cccc2c1Oc1ncccc1N(c1ccc(C(=O)NCc3ccccc3Cl)s1)C2	x	-2%	4%	14µM*	2%	-8%
O=C(CNC(=O)c1cccc2ccccc12)OC(C(=O)Nc1cc(C(F)(F)F)ccc1Cl)c1ccccc1 (stereo unspecified)	x	x	x	x	7%	12%
CCN(c1cccc(C)c1)S(=O)(=O)c1cc2c(cc1C)n(C)c(=O)c(=O)n2C	x	-2%	1%	-6%	4%	12%
CCOC(=O)c1nc(Nc2ccccc2CC)c2ccccc2n1	0%	0%	-1%	1%	4%	23µM*
CCOC(=O)c1nc(Nc2ccccc2C)c2ccccc2n1	-2%	-9%	2%	0%	3%	u
O=C1c2cccc(O)c2C(=O)c2c(O)cccc21	x	-4%	x	x	x	x
CC1OC(CC(=O)O)CC2=C1C(=O)c1c(O)cccc1C2=O (stereo unspecified)	-20%	x	-1%	0%	15µM*	21µM*
COc1cccc(NC(=O)C(OC(=O)CNC(=O)c2ccccc2)c2ccccc2)c1 (stereo unspecified)	x	x	x	x	-4%	u
CC(C)[C@@H](CO)N(C)S(=O)(=O)c1ccccc1Br	-1%[46.1 µM]	x	-1%	-6%	9%	2%
O=C(O)c1[nH]c2ccccc2c1NS(=O)(=O)c1ccc(F)cc1	-1%	-3%	4%	0%	1%	10%
O=C(O)c1[nH]c2ccccc2c1NS(=O)(=O)Cc1ccccc1	6%	-5%	7%	28µM*	-3%	-10%

In another format: three of the compounds above
molecule | TCR act | miR-21 reporter | Nrf2 ARE act | ClpP mod | A549 tox | Nrf2 inh
O=C1c2cccc(O)c2C(=O)c2c(O)cccc21 | x | -4% | x | x | x | x
CC1OC(CC(=O)O)CC2=C1C(=O)c1c(O)cccc1C2=O (stereo unspecified) | -20% | x | -1% | 0% | 15µM* | 21µM*
COc1cccc(NC(=O)C(OC(=O)CNC(=O)c2ccccc2)c2ccccc2)c1 (stereo unspecified) | x | x | x | x | -4% | u
